By UniProt entry, the sequences of proteins in these tests, tags left out. Where a name states a change or a piece, a line headed by the entry shows the natural chain unless it says otherwise.
UniProt P11766: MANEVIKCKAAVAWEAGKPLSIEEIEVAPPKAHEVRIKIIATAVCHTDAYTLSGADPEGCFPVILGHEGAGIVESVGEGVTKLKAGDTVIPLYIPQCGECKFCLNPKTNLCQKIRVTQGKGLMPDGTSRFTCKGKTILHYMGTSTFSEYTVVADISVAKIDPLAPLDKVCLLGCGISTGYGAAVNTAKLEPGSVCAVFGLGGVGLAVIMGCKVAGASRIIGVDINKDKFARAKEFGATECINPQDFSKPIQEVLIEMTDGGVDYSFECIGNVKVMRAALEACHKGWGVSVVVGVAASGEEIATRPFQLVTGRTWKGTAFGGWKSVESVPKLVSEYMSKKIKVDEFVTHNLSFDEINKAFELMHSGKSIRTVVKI

In patent US8741915B2, “Dihydropyrimidin-2(1H)-one compounds as S-nitrosoglutathione reductase inhibitors” (N30 Pharmaceuticals, Inc., priority 2009, dated 2014):

Biological target: GSNOR (Homo sapiens (Human), UniProt P11766)
Test: GSNOR assay (inhibition of GSNOR activity in vitro, change in 340 nm absorbance with GSNO/NADH)
Details: GSNOR IC50, Table 1, racemates and separated enantiomers

- IC50: 18 nM
SMILES: CCOc1cc([C@@H]2NC(=O)NC(c3ccccc3)=C2c2ccsc2)cc([N+](=O)[O-])c1O [Example 6, (S)-4-(3-ethoxy-4-hydroxy-5-nitrophenyl)-6-phenyl-5-(thiophen-3-yl)-3,4-dihydropyrimidin-2(1H)-one]
